Reference: article PMC11847841, “The development and evaluation of a tublysine-based antibody-drug conjugate with enhanced tumor therapeutic efficacy” (Frontiers in Pharmacology, 2025)

Key:
[1] = tested on: BT-474 human breast cancer xenografts; assay: BT-474 xenograft efficacy study; format: in vivo, BALB/c nude mice; details: BT-474 model, 10 mg/kg single i.v.
[2] = tested on: HER2-positive SK-BR-3 cells; assay: In vitro endocytosis into SK-BR-3 cells; format: cell-based, human
Method: (§1) BT-474 and SK-BR-3 cells were cultured to the exponential growth phase, harvested, and washed with pre-cooled PBS. […] Alexa Fluor 488-conjugated goat anti-human IgG (H + L) secondary antibody (10 μg/mL; Invitrogen, Shanghai, China) was subsequently added, and the cells were incubated on ice for 30 min. After additional washes, the cells were resuspended in pre-cooled PBS, divided into five aliquots, and incubated at 37°C for 0, 10, 30, 90, or 120 min. At each time point, cells were further split into two sub-aliquots: one treated with Trypan Blue to quench extracellular fluorescence and the other with PBS as an unquenched control. Fluorescence intensity was measured using a flow cytometer (Guava, Merck Millipore). The percentage of endocytosis was calculated as the ratio of quenched to unquenched fluorescence multiplied by 100%.

[3] = tested on: SK-BR-3 (HER2 positive cell); assay: Flow cytometry binding to SK-BR-3 cells; set-up: species or system human
Method: (§2) BT-474, SK-BR-3, and MDA-MB-468 cells were cultured to the exponential growth phase, detached with 0.25% trypsin, and resuspended in 2% FBS-PBS. A total of 200 μL of the cell suspension (5 × 10^4 cells per well) was seeded into 96-well plates, centrifuged at 4°C, 2,000 rpm for 1 min, and the supernatant was carefully aspirated. DX-CHO9 and Herceptin were diluted in 2% FBS-PBS to final concentrations ranging from 50 to 0.0005 μg/mL. Two hundred microliters of each dilution was added to the wells, and the plates were incubated at 4°C for 100 min. The plates were then centrifuged at 4°C, 2,000 rpm for 1 min, followed by two washes with 2% FBS-PBS. Subsequently, a PE-labeled secondary anti-human IgG antibody (200 μL per well; Santa Cruz Biotechnology) was added, and the plates were incubated at 4°C for 40 min. After two additional washes with 2% FBS-PBS, fluorescence signals were detected using a flow cytometer (Guava, Merck Millipore). Data analysis was conducted using Guava Soft 3.1.1 software.

[4] = tested on: HER2-positive BT-474 cells; assay: In vitro endocytosis into BT-474 cells; format: cell-based, human
Method: as §1

[5] = tested on: BT-474 (HER2 positive cell); assay: Flow cytometry binding to BT-474 cells; set-up: species or system human
Method: as §2

[6] = tested on: NCI-N87 human gastric cancer xenografts; assay: NCI-N87 xenograft efficacy study; format: in vivo, BALB/c nude mice; details: for T/C%: NCI-N87 model (Fig 3D, n = 5)
[7] = human, in vivo; cited from earlier work

Herceptin: Herceptin (Roche), purchased from a local pharmacy; anti-HER2 antibody comparator
T/C% [1]: 38.8%
Endocytosis Efficiency ([2]; SK-BR-3, incubation time 0 min): 10.1%
Endocytosis Efficiency ([2]; SK-BR-3, incubation time 10 min): 13.6%
Endocytosis Efficiency ([2]; SK-BR-3, incubation time 30 min): 18.8%
Endocytosis Efficiency ([2]; SK-BR-3, incubation time 90 min): 35%
Endocytosis Efficiency ([2]; SK-BR-3, incubation time 120 min): 37.4%
Kd [3]: 0.07867 µg/mL
Endocytosis Efficiency ([4]; BT-474, incubation time 0 min): 11.3%
Endocytosis Efficiency ([4]; BT-474, incubation time 10 min): 30%
Endocytosis Efficiency ([4]; BT-474, incubation time 30 min): 36%
Endocytosis Efficiency ([4]; BT-474, incubation time 90 min): 41.8%
Endocytosis Efficiency ([4]; BT-474, incubation time 120 min): 39.9%
Kd [5]: 0.1365 µg/mL

trastuzumab deruxtecan [Enhertu]
Complete tumor regression (animals) ([6]; NCI-N87 model (Fig 3D), 6 mg/kg): five out of five animals
T/C% ([6]; 1.5 mg/kg): 30.8%
T/C% ([6]; 6 mg/kg): 0%
ILD/pneumonitis incidence [7]: 13.6%
